Assay results published in PMC6013488, “A widely-applicable high-throughput cellular thermal shift assay (CETSA) using split Nano Luciferase” (Scientific Reports, 2018).

By UniProt entry, the sequences of proteins in these tests, tags left out.
UniProt P50750, whole entry: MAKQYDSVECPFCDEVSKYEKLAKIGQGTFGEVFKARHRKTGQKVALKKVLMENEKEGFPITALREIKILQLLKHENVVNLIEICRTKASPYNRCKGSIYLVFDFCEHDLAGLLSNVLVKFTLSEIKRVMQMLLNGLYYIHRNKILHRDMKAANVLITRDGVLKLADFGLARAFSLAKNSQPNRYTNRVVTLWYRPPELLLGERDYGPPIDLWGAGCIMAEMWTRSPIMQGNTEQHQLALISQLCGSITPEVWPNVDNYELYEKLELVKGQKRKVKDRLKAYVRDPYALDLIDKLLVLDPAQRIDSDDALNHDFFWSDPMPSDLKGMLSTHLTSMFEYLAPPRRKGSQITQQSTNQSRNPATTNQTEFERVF

These molecules were tested against T1, CDK9/cyclin K (Homo sapiens, UniProt P50750) (assay: TR-FRET Lanthascreen Eu Kinase Binding assay). Conditions: AC50, concentration at which half maximal activity is observed; 7-point qHTS.
T1 construct: purchased Invitrogen (ThermoFisher) PV4335
Work on `COc1ccc(-c2cc3nccn3c(Nc3ncccc3C(N)=O)n2)cc1OC` [BAY 61-3606 (dihydrochloride)] yielded an AC50 of 1.5e-07 M. With `O=C1OC(/C=C/c2ccccc2)=NC/1=C\c1cccnc1` [TC-DAPK 6] the AC50 was 3.36e-07 M. Molecule `Cn1cc(C2=C(c3cn(CCCSC(=N)N)c4ccccc34)C(=O)NC2=O)c2ccccc21` [Ro 31-8220 (mesylate)] has an AC50 of 3.77e-08 M. Molecule `O=C1Nc2ccccc2/C1=C1/Nc2ccccc2/C1=N\OCCC(O)CO` (centres unmarked) [Indirubin_E8] has an AC50 of 8.44e-07 M. With `Nc1n[nH]c(N)c1N=Nc1ccc(O)cc1` (stereo in doubt) [CAY10574] the AC50 was 4.23e-07 M. For `O=C(NCc1cccc(O)c1)Nc1nc(-c2ccncc2)cs1` [RKI-1447], the AC50 was 1.34e-07 M. `Cc1cc(CN2CCN(c3c(Br)cnc4nc(-c5ccc(N6CCN(C)CC6)cc5)[nH]c34)CC2)no1` [CCT137690] gave an AC50 of 5.97e-07 M. Work on `Cc1ccc(C(N)=O)cc1Nc1nccc(-c2cn(C(C)C)c3cnccc23)n1` [NCGC00263020-01] yielded an AC50 of 3.98e-07 M. In the case of `O=C1Nc2ccc(F)cc2/C1=C1\Nc2ccccc2\C1=N\O` [5 -Fluoroindirubinoxime], the AC50 is reported as 5.32e-07 M. In the case of `O=C1Nc2ccc3ncsc3c2/C1=C/Nc1ccc([S+](=O)([O-])Nc2ccccn2)cc1` [GW8510], the AC50 is reported as 4.33e-07 M. `N#C/C(=C\c1ccc(O)c(O)c1)C(=O)NCCCNC(=O)/C(C#N)=C/c1ccc(O)c(O)c1` [Tyrphostin AG 537] was tested, and the AC50 was 4.74e-07 M. In the case of `Oc1cc(CNC(=S)/C=C/c2cc(O)c(O)c(Br)c2)cc(O)c1O` [NT 157], the AC50 is reported as 6.7e-07 M. In the case of `O=C1NCCSc2c1sc1ccc(O)cc21` [kb-NB142-70], the AC50 is reported as 1.68e-07 M. `CN(C)CCCn1cc(C2=C(c3c[nH]c4ccccc34)C(=O)NC2=O)c2ccccc21` [GF109203X] showed an AC50 of 9.47e-07 M. `CN(C)c1nc2c(Br)c(Br)c(Br)c(Br)c2[nH]1` [DMAT] was tested, and the AC50 was 4.74e-07 M. For `N#C/C(=C1\Nc2ccccc2S1)c1ccnc(NCCc2cccnc2)n1` [AS601245], the AC50 was 3.36e-07 M. For `CC(C)c1cnn2c(NCc3ccccc3)cc(N[C@@H](CO)[C@H](O)CO)nc12` [BS194], the AC50 was 1.68e-08 M. Molecule `CC(C)c1nn(-c2c(Cl)cccc2Cl)c2nc(Cc3ccc(OCCO)cc3)[nH]c(=O)c12` [Cdk/Crk Inhibitor] has an AC50 of 1.06e-08 M. In the case of `Cc1cc(Nc2cc(NC(=O)c3c(Cl)cccc3Cl)ccn2)nc(N)n1` [RO495], the AC50 is reported as 9.47e-08 M. `Cc1n[nH]c2ccc(-c3cncc(OC[C@@H](N)Cc4c[nH]c5ccccc45)c3)cc12` [Compound A-443654, A-443654] showed an AC50 of 1.68e-07 M. For `Nc1ncnc2c1c(I)cn2[C@@H]1O[C@H](CO)[C@H](O)C1O` (some centres unmarked) [5-Iodotubercidin], the AC50 was 1.5e-07 M. `CC(C)n1nc(-c2ccc(NC(=O)Nc3cccc(C(F)(F)F)c3)cc2)c2c(N)ncnc21` [AD57 (hydrochloride)] was tested, and the AC50 was 5.97e-07 M. With `O=C1Nc2ccc3ncsc3c2/C1=C/c1c[nH]cn1` [Compound C16, C16] the AC50 was 8.44e-08 M. `OCCCNc1cc(-c2ccnc(Nc3cccc(Cl)c3)n2)ccn1` [CGP60474] was tested, and the AC50 was 8.4e-09 M. Work on `C[S+](=O)([O-])N1CCC(NC(=O)c2[nH]ncc2NC(=O)c2c(Cl)cccc2Cl)CC1` [NVP-LCQ195] yielded an AC50 of 2.99e-08 M. Work on `O=[N+]([O-])c1cccc2[nH]c(CNc3nc(N4CCOCC4)nc4c3ncn4-c3ccsc3)nc12` [NCGC00386926-01] yielded an AC50 of 3.77e-07 M. For `CN[C@H]1CCN(C(=O)c2ccc(Nc3ncc(F)c(-c4cnc(C)n4C(C)C)n3)cc2)C1` [AZD-5597], the AC50 was 1.9e-09 M. In the case of `COc1ccccc1-c1c[nH]c2ncc(-c3cncc(C(=O)N(C)C)c3)cc12` [PPY A], the AC50 is reported as 2.38e-07 M. Work on `CCCCNc1ncc(C(=O)NCc2ccc(-n3ccnc3)cc2)c(NC2CCC(O)CC2)n1` (stereo in doubt) [UNC2881] yielded an AC50 of 4.74e-07 M. For `NC(=O)c1ccccc1Nc1ccnc(Nc2cccc(O)c2)n1` [DB07268], the AC50 was 7.52e-07 M. Work on `CN(C)C/C=C/C(=O)Nc1cccc(C(=O)Nc2ccc(Nc3nccc(-c4cccnc4)n3)cc2)c1` [JNK-IN-7] yielded an AC50 of 3.77e-07 M.

Same assay, conditions: Log AC50 (M), logarithm of AC50
Molecule `CC(C)[C@H](CO)Nc1nc(Nc2cccc(Cl)c2)c2ncn(C(C)C)c2n1` [Purvalanol A] has an AC50 of 7.94e-07 M.

Structures can show the parent of a compound that is named as a salt.
